The text below walks through data of paper PMC6680850, “Anion Inhibition Profile of the β-Carbonic Anhydrase from the Opportunist Pathogenic Fungus Malassezia restricta Involved in Dandruff and Seborrheic Dermatitis” (Metabolites, 2019).

Chains of the proteins cited; added tags and fusions are not shown. Residues count along the entry.
UniProt A0A3G2S4B9, 1-238: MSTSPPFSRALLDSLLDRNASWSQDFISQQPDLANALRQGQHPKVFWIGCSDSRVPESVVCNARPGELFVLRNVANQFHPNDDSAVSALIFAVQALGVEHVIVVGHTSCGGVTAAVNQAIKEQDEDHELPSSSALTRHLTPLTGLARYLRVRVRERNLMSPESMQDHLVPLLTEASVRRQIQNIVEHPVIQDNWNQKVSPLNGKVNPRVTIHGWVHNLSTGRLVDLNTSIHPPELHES

This assay has as its target β-CA from Malassezia restricta (MreCA) (Malassezia restricta, UniProt A0A3G2S4B9). The format is biochemical. To be noted: pH 8.3.

Regarding fluorosulfonate [FSO3^−], the Ki was over 50 mM.
